This assay has as its target B2 receptor (Homo sapiens, UniProt P30411). Kind of assay: cell-based.

The chains behind the UniProt entries cited, without tags or fusion partners.
UniProt P30411, whole entry: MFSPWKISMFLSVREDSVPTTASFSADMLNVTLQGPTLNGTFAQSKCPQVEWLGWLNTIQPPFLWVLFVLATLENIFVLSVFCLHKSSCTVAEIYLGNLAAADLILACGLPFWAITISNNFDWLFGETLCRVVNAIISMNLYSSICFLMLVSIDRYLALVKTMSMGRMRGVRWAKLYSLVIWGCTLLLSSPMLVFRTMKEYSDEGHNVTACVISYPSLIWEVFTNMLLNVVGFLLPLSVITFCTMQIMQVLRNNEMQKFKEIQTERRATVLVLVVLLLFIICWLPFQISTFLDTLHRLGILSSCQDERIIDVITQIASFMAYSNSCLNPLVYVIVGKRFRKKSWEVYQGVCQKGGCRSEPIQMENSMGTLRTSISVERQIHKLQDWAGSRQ

`NC(N)=NCCC[C@@H](N)C(=O)N[C@@H](CCCN=C(N)N)C(=O)N1CCC[C@H]1C(=O)N1C[C@H](O)C[C@H]1C(=O)NCC(=O)N[C@H](C(=O)N[C@@H](CO)C(=O)N[C@@H](C(=O)N1[C@H](C(=O)N[C@@H](CCCN=C(N)N)C(=O)O)C[C@@H]2CCCC[C@@H]21)C1Cc2ccccc2C1)C1Cc2ccccc2C1` [Compound 1, DArg-Arg-Pro-Hyp-Gly-Iglb-Ser-DIglb-O ic-Arg]: the Kb was 1.78 nM.

Values taken from patent publication US5648336A (University of Colorado, priority 1994, dated 1997).
